Test results taken from patent publication US20050208463A1, “Method of screening drug” (priority 2001, published 2005).

Tested on: Lrp-like protein
Test: Gel filtration analysis of changes in assemblies of the Lrp-like protein on mixing with potential ligands
Type: biochemical, Pyrococcus sp. OT3
Details: metabolic intermediate 10 mM
Procedure: Possible changes in assemblies of the Lrp-like protein induced by interaction with amino acids and metabolic intermediates were analyzed in solution using gel filtration.
Gel filtration was carried out with the flow rate […], using a matrix (Protein Pak 125, 7.8×300 mm, Waters) and 50 mM Tris-HCl buffer (pH 7.0) containing 300 mM sodium chloride. Flow of the proteins was monitored by measuring the UV absorbance at 220 nm (LC Module I plus system, Waters). The Lrp-like protein purified by method 2, i.e., the rigorous method, were dissolved in 50 mM Tris-HCl buffer (pH 7.0) containing 200 mM sodium chloride, and kept at −80° C. until it was diluted by 10-fold with 50 mM Tris-HCl buffer (pH 7.0) containing 300 mM sodium chloride, and mixed with each potential ligand for at least 30 minutes at room temperature (about 25° C.). In the mixture, the monomer concentration of the Lrp-like protein was approximately 100 μM.

In the case of O=C(O)CCC(=O)C(=O)O [2-oxoglutaric acid], the “effect on assembling of the Lrp-like protein concluded from gel filtration” value is reported as “intermediate effects” and the “change in gel filtration profile of the Lrp-like protein (peak increased)” value (protein monomer approximately 100 μM, at least 30 minutes at room temperature, UV 220 nm) is reported as “the third peak increased”.
